Test results from ChEMBL document CHEMBL1141349, “Cytochrome P3A4 inhibitors and other constituents of Fibraurea tinctoria” (J Nat Prod, 2007).

Amino acid sequences for entries named in this document (tags omitted).
UniProt P08684, whole entry: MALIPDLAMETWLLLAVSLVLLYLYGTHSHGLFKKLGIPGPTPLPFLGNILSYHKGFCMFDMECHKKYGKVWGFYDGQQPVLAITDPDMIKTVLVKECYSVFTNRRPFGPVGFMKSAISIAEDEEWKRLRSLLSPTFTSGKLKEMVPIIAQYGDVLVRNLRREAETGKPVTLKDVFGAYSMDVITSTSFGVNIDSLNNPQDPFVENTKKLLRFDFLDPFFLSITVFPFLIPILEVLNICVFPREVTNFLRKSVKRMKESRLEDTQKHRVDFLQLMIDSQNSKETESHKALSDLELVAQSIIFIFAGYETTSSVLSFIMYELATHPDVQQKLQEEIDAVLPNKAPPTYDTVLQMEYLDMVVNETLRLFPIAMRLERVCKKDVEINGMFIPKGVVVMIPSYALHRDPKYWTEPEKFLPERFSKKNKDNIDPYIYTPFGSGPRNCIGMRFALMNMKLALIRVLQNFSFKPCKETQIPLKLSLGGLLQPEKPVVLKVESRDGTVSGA

Target: Cytochrome P450 3A4 (Homo sapiens, UniProt P08684)
Assay: Inhibition of human CYP3A4 expressed in Escherichia coli assessed as inhibition of nifedipine oxidation
Type: ADME
How it was run: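 Bicistronic human CYP3A4 expressed in E. coli DH5; bacterial membrane fractions (sonication, differential centrifugation) stored at -75 °C, P450 content by CO-difference spectroscopy. Nifedipine substrate with 100 pmol P450 per incubation, 37 °C shaking waterbath; pyridine metabolite quantified by HPLC.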

For `COc1cc2c(cc1O)CC[n+]1cc3c(OC)c(OC)ccc3cc1-2` [JATRORRHIZINE], which IC50 is on record?
Its IC50 is 2100 nM.
